In US20240158472A1, “FERRITIN VARIANTS WITH INCREASED STABILITY AND COMPLEXATION ABILITY” (Cellis AG, priority 2021, published 2024):

How the values were obtained:
[1] = Protein recovery after doxorubicin loading, UV-Vis spectrum; format: physicochemical; details: initial concentration 28.5 mg/ml, volume 1 ml
siRNA = assay: Association of ferritin with siRNA, gel; format: binding; details: independently from pH conditions (2.5 to 6.8)
Procedure: FIG. 8: Picture of gel showing RNA association with Q11E ferritin mutant that is not observed in case of wild-type protein (wt).
1 ml reaction containing 2 mg Ft and 4 ug siRNA in DPBS, pH lowered to values as indicated (2.5, 3.2, 4.4, 5.6 and 6.8, respectively). Samples were incubated 15 min in RT, then NaOH was added to adjust pH to neutral (pH 7). Non-associated free siRNA was removed by 4 centrifugation steps on Amicons with 100 kDa cut-off.

[2] = Native gel after storage in freezer (-80 degrees Celsius) and thawing; format: physicochemical; details: ferritin cages with doxorubicin, mutants of b203
Excerpt: Storage conditions for wild type ferritin are limited.

WT: human wild-type heavy chain ferritin (SEQ ID NO. 1)
final protein concentration after doxorubicin encapsulation [1]: 10.2 mg/mL | association with siRNA (siRNA): no association with siRNA | aggregation of cages after storage [2]: increase of cages aggregation
